The test deals with PGE2 formation in normal human epidermal keratinocytes (NHEK). Briefly: Inhibition of PGE2 formation in irritated keratinocyte cultures (PGE2 immunoassay). It is filed as cell-based. As to conditions: 24 h. The method, then: A confluent culture was trypsinated and adjusted to a density of 5×10^4 cells/ml. The cells were then seeded in the same medium but with only 1% fetal calf serum in 24 well plates and cultivated for a period of 48 h. A model irritating agent was then applied to the cells by adding calcimycin to a final level of 2.5 μM. The individual compounds, as listed below, dissolved in DMSO were added simultaneously. The final concentration of the compounds was 50 μM or 10 μM, the final DMSO concentration was adjusted to 1% (v/v). Parallel treatments received no calcimycin (non-irritated control) or calcimycin without compounds according to the present invention (irritated control). The DMSO concentration was adjusted to 1% in all these control treatments. […] The prostaglandin levels in treated cell cultures were compared to the irritated and non-irritated control cultures in order to determine the relative inhibition of PGE2 formation.

Consider `COc1ccc2ccccc2c1` [YARA YARA ™, 2-methoxynaphthalene], for which, under “Homo sapiens, NHEK, read-out: relative inhibition in % of PGE2 formation in keratinocyte cultures at 50 μM”, the inhibition at 50 µM was determined as 78%. In addition, for the setting “column head prints only 'μM' (method: 50 μM or 10 μM), calcimycin 2.5 μM, 1% DMSO”, the “relative inhibition in % of PGE2 formation in keratinocyte cultures at μM” value is on record as 46%.

For the origin of these results see patent US9440097B2, “Organic compounds” (Givaudan SA, priority 2005, dated 2016).
